Converted amounts (≈) assume the structure as drawn.
Key:
Test in all cases: ≥ marks a high value that may be exact or a test limit, other limits are often not marked, values filed in µg/mL are converted to µM
[1] = system: Erwinia amylovora PMV 6076
[2] = system: Pseudomonas syringae pv. syringae EPS 94
[3] = system: Xanthomonas campestris pv. Vesicatoria 2133-2
Bacillus subtilis = system: Bacillus subtilis
Candida albicans = system: Candida albicans
Cryptococcus neoformans = system: Cryptococcus neoformans
Escherichia coli = system: Escherichia coli
Pseudomonas putida = system: Pseudomonas putida
Saccharomyces cerevisiae = system: Saccharomyces cerevisiae
Salmonella typhimurium = system: Salmonella typhimurium
Serratia marcescens = system: Serratia marcescens
Staphylococcus aureus = system: Staphylococcus aureus
Streptococcus mutans = system: Streptococcus mutans
Streptococcus pneumoniae = system: Streptococcus pneumoniae

Molecule `CC[C@H](C)[C@H](NC(=O)CNC(=O)[C@H](C)NC(=O)[C@@H]1CCCN1C(=O)CNC(=O)[C@H](C)NC(=O)[C@H](CC(C)C)NC(=O)[C@H](Cc1ccc(O)cc1)NC(=O)[C@H](CCCCN)NC(=O)[C@H](CC(C)C)NC(=O)[C@@H](NC(=O)[C@H](CCCCN)NC(=O)[C@H](CCCCN)NC(=O)[C@H](Cc1ccccc1)NC(=O)[C@H](CC(C)C)NC(=O)[C@H](CCCCN)NC(=O)[C@H](CCCCN)NC(=O)CN)[C@@H](C)CC)C(=O)NCC(=O)N[C@@H](CCCCN)C(=O)N[C@@H](Cc1ccccc1)C(=O)N[C@@H](CC(C)C)C(=O)N[C@@H](Cc1cnc[nH]1)C(=O)N[C@@H](CO)C(=O)N[C@@H](C)C(=O)N[C@@H](CCCCN)C(=O)O` [GKKLFKKILKYLAGPAGIGKFLHSAK] has an MIC [1] of 1.77 µM (≈ 4.98 µg/mL) and an MIC [2] of 3.54 µM (≈ 9.95 µg/mL).
`CC[C@H](C)[C@H](NC(=O)[C@H](CCC(N)=O)NC(=O)[C@@H](NC(=O)[C@H](C)NC(=O)[C@H](CCC(N)=O)NC(=O)CNC(=O)[C@@H](NC(=O)[C@@H](NC(=O)[C@H](C)NC(=O)[C@@H](NC(=O)[C@H](C)NC(=O)[C@H](CC(C)C)NC(=O)[C@H](Cc1ccc(O)cc1)NC(=O)[C@H](CCCCN)NC(=O)[C@H](CC(C)C)NC(=O)[C@@H](NC(=O)[C@H](CCCCN)NC(=O)[C@H](CCCCN)NC(=O)[C@H](Cc1ccccc1)NC(=O)[C@H](CC(C)C)NC(=O)[C@H](CCCCN)NC(=O)[C@@H](N)CCCCN)[C@@H](C)CC)C(C)C)C(C)C)C(C)C)[C@@H](C)O)C(=O)N[C@@H](C)C(=O)N[C@@H](CCCCN)C(=O)N[C@@H](CCCCN)C(=O)N[C@@H](CC(=O)O)C(=O)N[C@@H](CCC(=O)O)C(=O)N[C@@H](CC(C)C)C(=O)O` [KKLFKKILKYLAVAVVGQATQIAKKDEL] was tested, and the MIC [1] was 3.54 µM (≈ 11.1 µg/mL), the MIC [2] was 1.77 µM (≈ 5.56 µg/mL) and the MIC [3] was 3.54 µM (≈ 11.1 µg/mL).
For `CC(C)C[C@H](NC(=O)[C@H](CC(C)C)NC(=O)[C@H](CCCN=C(N)N)NC(=O)[C@H](Cc1cnc[nH]1)NC(=O)[C@@H](NC(=O)[C@H](CCCN=C(N)N)NC(=O)CNC(=O)[C@@H](NC(=O)[C@@H]1CCCN1C(=O)[C@H](Cc1ccccc1)NC(=O)[C@H](CCC(N)=O)NC(=O)[C@@H](N)CC(C)C)C(C)C)C(C)C)C(=O)N[C@@H](CCCN=C(N)N)C(=O)N[C@@H](CCCCN)C(=O)O` [LQFPVGRVHRLLRK], the MIC (Bacillus subtilis) was 4.65 µM (≈ 8 µg/mL), the MIC (Candida albicans) was 18.6 µM (≈ 32 µg/mL) and the MIC (Cryptococcus neoformans) was ≥ 37.2 µM. The MIC (Escherichia coli) was 4.65 µM (≈ 8 µg/mL), the MIC (Pseudomonas putida) was 9.31 µM (≈ 16 µg/mL) and the MIC (Saccharomyces cerevisiae) was 18.6 µM (≈ 32 µg/mL). The MIC (Salmonella typhimurium) was 2.33 µM (≈ 4 µg/mL), the MIC (Serratia marcescens) was 4.65 µM (≈ 8 µg/mL) and the MIC (Staphylococcus aureus) was 9.31 µM (≈ 16 µg/mL). For the same molecule, the MIC (Streptococcus mutans) was 4.65 µM (≈ 8 µg/mL) and the MIC (Streptococcus pneumoniae) was 9.31 µM (≈ 16 µg/mL).
Molecule `CC[C@H](C)[C@H](NC(=O)CNC(=O)[C@H](C)NC(=O)[C@@H]1CCCN1C(=O)CNC(=O)[C@H](C)NC(=O)[C@H](CC(C)C)NC(=O)[C@H](Cc1ccc(O)cc1)NC(=O)[C@H](CCCCN)NC(=O)[C@H](CC(C)C)NC(=O)[C@@H](NC(=O)[C@H](CCCCN)NC(=O)[C@H](CCCCN)NC(=O)[C@H](Cc1ccccc1)NC(=O)[C@H](CC(C)C)NC(=O)[C@H](CCCCN)NC(=O)[C@H](CCCCN)NC(=O)[C@@H](N)CO)[C@@H](C)CC)C(=O)NCC(=O)N[C@@H](CCCCN)C(=O)N[C@@H](Cc1ccccc1)C(=O)N[C@@H](CC(C)C)C(=O)N[C@@H](Cc1cnc[nH]1)C(=O)N[C@@H](CO)C(=O)N[C@@H](C)C(=O)N[C@@H](CCCCN)C(=O)O` [SKKLFKKILKYLAGPAGIGKFLHSAK] has an MIC [1] of 1.77 µM (≈ 5.03 µg/mL) and an MIC [2] of 3.54 µM (≈ 10.1 µg/mL).
